# According to patent US12084472B2 (Ardelyx, Inc., priority 2015, dated 2024):
# Sequences of proteins named here, by UniProt entry; tags and fusion partners are left off.
# UniProt Q8TDU6, whole entry: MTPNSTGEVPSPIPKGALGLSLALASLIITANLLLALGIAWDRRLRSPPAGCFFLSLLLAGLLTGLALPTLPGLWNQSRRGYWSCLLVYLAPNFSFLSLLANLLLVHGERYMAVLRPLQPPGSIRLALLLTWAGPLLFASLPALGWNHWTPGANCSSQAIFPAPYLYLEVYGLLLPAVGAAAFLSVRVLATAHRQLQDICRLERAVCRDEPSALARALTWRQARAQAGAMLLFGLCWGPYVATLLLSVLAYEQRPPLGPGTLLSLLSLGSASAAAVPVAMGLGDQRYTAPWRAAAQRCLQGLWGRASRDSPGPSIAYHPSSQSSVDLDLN
# Biological target: human TGR5 (Homo sapiens, UniProt Q8TDU6)
# Test: Cell-based TGR5 assay (cAMP generation, HTRF)
# Settings: HEK293 cells stably transfected with human TGR5; cAMP by HTRF; 30 minutes at 37° C.
structure (smiles),measurement,value
O=C(N[C@@H](CO)[C@@H](O)[C@H](O)[C@H](O)CO)c1ccc(OCc2ccc(Cl)c(COC3(c4cnccc4-c4ccccc4OC4CC4)CC3)c2)nc1,pEC50 Human TGR5,B (B is a pEC50 of 6 to 6.9)
